Literature values as cited in patent US6525025B2, “Gamma-ketoacid dipeptides as inhibitors of caspase-3” (Merck Frosst Canada & Co., priority 2000, dated 2003).

Experiments:
caspase-1 = biological target: T1, caspase-1 (Homo sapiens, UniProt P29466)
T1 sequence (P29466 120-297 limits assumed): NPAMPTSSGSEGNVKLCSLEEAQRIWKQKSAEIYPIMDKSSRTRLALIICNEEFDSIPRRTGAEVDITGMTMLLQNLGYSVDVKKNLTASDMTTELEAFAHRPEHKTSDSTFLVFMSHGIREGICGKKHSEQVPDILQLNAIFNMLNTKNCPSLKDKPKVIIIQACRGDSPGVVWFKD
T1 sequence (P29466 317-404 limits assumed): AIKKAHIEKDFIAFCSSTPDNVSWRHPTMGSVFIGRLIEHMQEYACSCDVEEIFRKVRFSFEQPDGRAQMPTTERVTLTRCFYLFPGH

caspase-3 = biological target: T2, caspase-3 (Homo sapiens, UniProt P42574)
T2 sequence (P42574 29-175 limits assumed): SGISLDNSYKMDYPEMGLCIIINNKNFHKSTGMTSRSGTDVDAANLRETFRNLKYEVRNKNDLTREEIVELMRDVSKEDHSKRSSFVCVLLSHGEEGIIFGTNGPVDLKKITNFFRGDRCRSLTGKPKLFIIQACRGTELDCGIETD
T2 sequence (P42574 176-277 limits assumed): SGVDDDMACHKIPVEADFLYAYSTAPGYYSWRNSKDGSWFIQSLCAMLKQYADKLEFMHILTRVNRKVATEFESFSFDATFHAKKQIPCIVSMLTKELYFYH

Ki (caspase-3): < 1 nM
Substance: Ac-DEVD-CHO
inhibition of caspase-1 (in words) (caspase-1): weaker but reasonable inhibitor of caspase-1
